scFv variants of Ab-14 (heavy chain) against a SARS-CoV-2 spike peptide

From the AlphaSeq antibody data of Engelhart et al. 2022 (doi:10.1038/s41597-022-01779-4), copy in the FLAb collection.

Target peptide (SARS-CoV-2 spike, HR2 region): PDVDLGDISGINAS

Ab-14 is the parent antibody, in scFv form: VH, then three GGGGS repeats, then VL. The light chain is unchanged in all variants.
VH: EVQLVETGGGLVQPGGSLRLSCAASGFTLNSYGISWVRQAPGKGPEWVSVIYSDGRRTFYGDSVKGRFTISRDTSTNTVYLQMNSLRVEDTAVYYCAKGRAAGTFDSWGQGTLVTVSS
VL: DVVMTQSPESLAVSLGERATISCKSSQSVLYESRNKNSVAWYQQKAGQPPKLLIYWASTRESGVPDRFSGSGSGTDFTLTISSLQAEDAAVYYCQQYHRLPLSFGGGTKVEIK

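The parent was found by panning a naive human phage display library on the peptide. Variants in AAYL49 differ from the parent at up to three CDR positions; double and triple changes were sampled at random. The assay is AlphaSeq: two haploid yeast populations carry antibody and antigen on their surface. The frequency of each diploid, read from paired DNA barcodes, reflects how well the two displayed proteins bind. Each replicate has its own calibration line, from reference interactions of the BCL2 family. There are three technical replicates.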

Each variant's VH is given in full.
Affinities are written as log10 Kd with Kd in nM; a lower number is a better binder.
Replicates are averaged; those with no signal do not enter the mean.
An entry "ND" has no value in the source: the pair was not observed among the diploids in that replicate. This suggests poor binding but is not conclusive.
As a blank, each scFv also met three strains without target: over library AAYL49, 15% of these pairings were detected, typically at 4.06 and seldom below 2.83. Also given: how often the same scFv was detected with the empty control strains, with their mean in brackets.
For reference, the parent read 0.65 as the reference entry and 4.11 (one replicate of three) as a member of this library.

| VH | log10 Kd, replicates | mean log10 Kd (nM) | control signals |
|---|---|---|---|
| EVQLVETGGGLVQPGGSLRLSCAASGHTLNSYGISWVRQAPGKGPEWVSVIYSDGRRTFYGDSTKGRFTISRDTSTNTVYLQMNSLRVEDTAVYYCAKGRACGTFDSWGQGTLVTVSS | 4.22 / ND / ND | 4.22 | 2 of 9 (3.69) |
| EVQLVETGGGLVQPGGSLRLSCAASGFTLNSYGISWVRQAPGKGPEWVSVIYSDGPITFAGDSVKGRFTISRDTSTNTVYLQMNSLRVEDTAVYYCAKGRAAGTFDSWGQGTLVTVSS | ND / ND / ND | ND | 1 of 9 (4.28) |
| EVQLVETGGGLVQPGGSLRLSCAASGGTLNSYGISWVRQAPGKGPEWVSVIYSDCRRTFYGDSVKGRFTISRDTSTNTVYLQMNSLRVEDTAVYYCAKGRAAGTFDYWGQGTLVTVSS | ND / 4.75 / ND | 4.75 | 1 of 9 (3.38) |
| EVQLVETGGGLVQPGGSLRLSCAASGFTRNKYGISWVRQAPGKGPEWVSVDYSDGRRTFYGDSVKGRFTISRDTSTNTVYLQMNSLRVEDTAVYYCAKGRAAGTFDSWGQGTLVTVSS | ND / ND / ND | ND | 2 of 9 (3.52) |
| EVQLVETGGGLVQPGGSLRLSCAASGFTLNSYGISWVRQAPGKGPEWVSVFYSDGRRTFCVDSVKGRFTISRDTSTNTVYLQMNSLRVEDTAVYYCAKGRAAGTFDSWGQGTLVTVSS | ND / ND / ND | ND | 1 of 9 (3.71) |
| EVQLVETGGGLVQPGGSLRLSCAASGFTLNSYGISWVRQAPGKGPEWVSVFYSDGRRTFYGDSVKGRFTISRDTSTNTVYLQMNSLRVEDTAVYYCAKCRAWGTFDSWGQGTLVTVSS | ND / ND / ND | ND | 0 of 9 |
| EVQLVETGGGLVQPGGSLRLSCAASGFTLNSKNISWVRQAPGKGPEWVSVIYSDVRRTFYGDSVKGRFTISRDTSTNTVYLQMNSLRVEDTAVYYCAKGRAAGTFDSWGQGTLVTVSS | ND / 3.07 / ND | 3.07 | 3 of 9 (4.16) |
| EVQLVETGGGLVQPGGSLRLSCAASGFTLDSYGISWVRQAPGKGPEWVSVIYSDGRRTFYGDSVKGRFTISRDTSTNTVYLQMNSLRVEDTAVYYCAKGRAAPIFDSWGQGTLVTVSS | 0.56 / 0.71 / 0.74 | 0.67 | 0 of 9 |
| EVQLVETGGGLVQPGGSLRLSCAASIFTLWSYGISWVRQAPGKGPEWVSIIYSDGRRTFYGDSVKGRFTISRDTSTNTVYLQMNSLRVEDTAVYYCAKGRAAGTFDSWGQGTLVTVSS | 3.47 / ND / ND | 3.47 | 1 of 9 (3.71) |
| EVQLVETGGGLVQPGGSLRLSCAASGFTLYSYGISWVRQAPGKGPEWVSVIYWDGVRTFYGDSVKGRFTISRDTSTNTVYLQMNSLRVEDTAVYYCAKGRAAGTFDSWGQGTLVTVSS | 3.02 / ND / 3.15 | 3.08 | 0 of 9 |
| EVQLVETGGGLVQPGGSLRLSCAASGFTLNSYGISWVRQAPGKGPEWVSVIYEDGRRTFEGSSVKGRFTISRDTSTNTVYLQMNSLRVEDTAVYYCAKGRAAGTFDSWGQGTLVTVSS | ND / ND / ND | ND | 1 of 9 (4.34) |
| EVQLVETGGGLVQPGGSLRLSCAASGYTLNSYGISWVRQAPGKGPEWVSVIYSDIRRTFNGDSVKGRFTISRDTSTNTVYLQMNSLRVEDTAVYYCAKGRAAGTFDSWGQGTLVTVSS | ND / ND / ND | ND | 5 of 9 (3.96) |
| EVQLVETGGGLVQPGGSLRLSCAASGFTLNSYGISWVRQAPGKGPEWVSVIYSAGRWTFYGDSVKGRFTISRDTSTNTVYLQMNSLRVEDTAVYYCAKGRCAGTFDSWGQGTLVTVSS | ND / ND / ND | ND | 0 of 9 |
| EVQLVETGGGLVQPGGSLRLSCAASGFTLNSYGISWVRQAPGKGPEWVSVIYADGRRTFYFDSVKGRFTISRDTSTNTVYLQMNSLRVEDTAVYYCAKGRAAGTLDSWGQGTLVTVSS | 1.55 / 1.44 / 1.65 | 1.55 | 0 of 9 |
| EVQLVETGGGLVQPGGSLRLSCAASGFWPNSYGISWVRQAPGKGPEWVSVIYSDGRRTFYGDSVKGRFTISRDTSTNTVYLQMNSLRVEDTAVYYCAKGRAAGTFDLWGQGTLVTVSS | ND / ND / ND | ND | 0 of 9 |
| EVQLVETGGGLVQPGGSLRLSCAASGFTLNSYFISWVRQAPGKGPEWVSVIYSDGRRTFYGDSVQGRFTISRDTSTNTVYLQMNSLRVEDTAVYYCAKGRAAGTFDSWGQGTLVTVSS | ND / 3.39 / 5.28 | 4.34 | 2 of 9 (3.54) |
| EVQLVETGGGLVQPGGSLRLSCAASGFTFNSYGISWVRQAPGKGPEWVSVEYSDGRRTFYGDSVKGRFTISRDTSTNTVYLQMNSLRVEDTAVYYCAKGRDAGTFDSWGQGTLVTVSS | ND / ND / ND | ND | 1 of 9 (3.83) |
| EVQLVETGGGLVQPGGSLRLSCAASGFTLNSYGISWVRQAPGKGPEWVSVIYSDGRRTFYFDSAGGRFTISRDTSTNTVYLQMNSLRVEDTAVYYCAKGRAAGTFDSWGQGTLVTVSS | ND / 3.97 / 3.72 | 3.84 | 0 of 9 |
| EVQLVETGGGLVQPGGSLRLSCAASGFTLNSYGISWVRQAPGKGPEWVSVIYSDGRRTFYGDSVEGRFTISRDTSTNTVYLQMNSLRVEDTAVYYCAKGRAAGGTDSWGQGTLVTVSS | 0.62 / 0.94 / 0.84 | 0.80 | 0 of 9 |

3 of these entries, quoted again:

VH	log10 Kd, replicates	mean log10 Kd (nM)	control signals
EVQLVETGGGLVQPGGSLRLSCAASGGTLNSYGISWVRQAPGKGPEWVSVIYSDCRRTFYGDSVKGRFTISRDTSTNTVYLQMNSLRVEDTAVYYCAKGRAAGTFDYWGQGTLVTVSS	ND / 4.75 / ND	4.75	1 of 9 (3.38)
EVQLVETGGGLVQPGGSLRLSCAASGFTLNSYGISWVRQAPGKGPEWVSVIYSDGRRTFYGDSVEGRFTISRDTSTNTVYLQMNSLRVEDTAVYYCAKGRAAGGTDSWGQGTLVTVSS	0.62 / 0.94 / 0.84	0.80	0 of 9
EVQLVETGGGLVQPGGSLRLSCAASGHTLNSYGISWVRQAPGKGPEWVSVIYSDGRRTFYGDSTKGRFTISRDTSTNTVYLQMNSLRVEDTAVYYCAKGRACGTFDSWGQGTLVTVSS	4.22 / ND / ND	4.22	2 of 9 (3.69)